Literature values, collected in publication PMC9016704, “Dichlorophenylpyridine-Based Molecules Inhibit Furin through an Induced-Fit Mechanism” (ACS Chemical Biology, 2022).

Tested on: DPP-4
Set-up: method as in PMID 27438064
Details: on-rate to DPP-4; cited from earlier work

N#C[C@@H]1CCCN1C(=O)CNC12CC3CC(CC(O)(C3)C1)C2 [vildagliptin]
on-rate: 7.1 × 10^4 M^–1 s^–1
